Compounds with a hit are over-represented: about 16% of the library has one in this group of screens.
TDP1 inh = TDP1 (human) enzyme inhibition | AID 485290 | Potency, µM (highest dose often 130 µM), for inactives: at the top dose activity change, negative = inhibition, usual class: inhibitors | recombinant TDP1, AlphaScreen DNA substrate cleavage | Q9NUW8 | 350,000 compounds, 0.28% hits; also: potency is read from the fitted curve at half-maximal effect; % is scaled to controls: 0 for no effect and ±100 for the full control effect; nearly all actives have a fitted effect of over 40% in size
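Steps: enzyme plus compound, 15 min RT; add biotin/phosphotyrosine-FITC oligonucleotide (15 nM final), react 5 min; add donor/acceptor beads (10 ug/ml final), 10 min; read AlphaScreen. Tdp1 at 1 nM final.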
TDP1 cell CPT = growth inhibition of DT40 Tdp1-/-;hTDP1 cells with camptothecin (screen for TDP1 inhibitors). Potency, µM (series often up to 46.2 µM), without a hit: at the highest dose activity change, negative = growth inhibition, actives largely listed as inhibitors. chicken DT40 Tdp1-/-;hTDP1 cells + 20 nM CPT, ATP luminescence, 48 h. 420,000 compounds, 12% hits; also: potency is read from the fitted curve at half-maximal effect; % is scaled to controls: 0 for no effect and ±100 for the full control effect; nearly all actives have a fitted effect of over 55% in size
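Cell growth measured by CellTiter-Glo luminescence after a minimum 48 h, 37 C compound exposure with 20 nM CPT in Tdp1-knockout DT40 cells stably expressing hTDP1, seeded 400/well; qHTS titration format.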
miR-21 reporter = raises the signal of a miR-21 reporter; AID 2288; 340,000 tested, under 10 active; Potency, µM (doses to about 38.3 µM), inactives show at the top dose reporter change, positive = more light; HeLa miR-21 FLuc reporter, luciferase, 48 h; active = well fitted rising curve with a large enough effect; inconclusive = small, poorly fitted or top-dose-only effect; inactive = no such curve, though single readings can be large or run the other way;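 note: % of control where 0% means no effect; miR-21 action dims this reporter so a rising signal means less miR-21 action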
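HeLa miR-21-FLuc reporter line, endogenous miR-21; 2000 cells/well in DMEM/10% FBS; compound titration up to ~40uM final, 48 h, 37 degree Celsius; luciferase detection reagent, 15 min lysis, CCD luminescence.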
DT40 TDP1 no CPT = qHTS for Inhibitors of human tyrosyl-DNA phosphodiesterase 1 (TDP1): qHTS in cells in absence of CPT; Potency, µM (highest dose often 46.2 µM), for the others: top-dose activity change, negative = growth inhibition, actives largely listed as inhibitors; DT40 Tdp1-/- hTDP1 cells, no CPT, ATP luminescence, 48 h; 420,000 compounds, 15% hits; also: potency is read from the fitted curve at half-maximal effect; % is scaled to controls: 0 for no effect and ±100 for the full control effect; nearly all actives have a fitted effect of over 55% in size
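DT40 Tdp1-/-;hTDP1 cells, no CPT (DMSO vehicle only), 400 cells/well; compounds pin-transferred; ≥48 hr, 37 °C; CellTiter-Glo 30 min RT dark, luminescence read.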
uPA surface inh = cell surface uPA generation inhibition. 330,000 compounds, 0.31% hits. Potency, µM (highest dose often 38.3 µM), without a hit: at the highest dose activity change, negative = inhibition, hits mostly inhibitors. cell surface uPA generation assay, qHTS; active = well fitted inhibition curve with a large enough effect; inconclusive = small, poorly fitted or top-dose-only effect; inactive = no such curve, though single readings can be large or run the other way; tested in mouse RAW 264.7 cells; also: potency is read from the fitted curve at half-maximal effect; % is scaled to controls: 0 for no effect and ±100 for the full control effect; nearly all actives have a fitted effect of over 55% in size
* marks the source's active call; other numbers are inactive results; ? = inconclusive; . = no result; [ ] = remark or other dose. Unless noted, calls follow the shape of the dose curve; as a rule, active = well fitted curve in the direction sought with a large enough effect; inconclusive = small, poorly fitted or top-dose-only effect, or another doubt; inactive = no such curve, though single readings can be large; an effect the other way counts as inactive or inconclusive.

1) COc1ccc(/C=C/C(=O)N2CCN(c3ccccn3)CC2)c2ccccc12
2) COc1ccc(/C=C/C(=O)N2CCN(c3ccccn3)CC2)c(OC)c1OC
3) COc1ccc(OC(=O)N2CCOCC2)cc1
4) COc1ccc(/C(N)=N/OC(=O)N2CCOCC2)cc1
5) COCCCNC(=O)c1ccccc1N(Cc1ccccc1)S(=O)(=O)c1ccc(OC)cc1
6) C=CCN(c1ccccc1OC)S(=O)(=O)c1cccc(C(=O)NCc2ccco2)c1
7) CN(c1ccccc1C(=O)Nc1ccccc1C(=O)NCc1ccco1)S(C)(=O)=O
8) O=C(NCc1ccco1)c1ccccc1NS(=O)(=O)c1ccc(Br)s1

| Compound | 1 | 2 | 3 | 4 | 5 | 6 | 7 | 8 |
| --- | --- | --- | --- | --- | --- | --- | --- | --- |
| TDP1 cell CPT | ? | ? | 0% | ? | ? | 0% | 1% | ? |
| TDP1 inh | 6% | . | . | 5% | . | 1% | 4% | 5% |
| uPA surface inh | 6% | 6% | 8% | -10% | ? | -1% | . | 0% |
| miR-21 reporter | 0% | -1% | -19% | 0% | 16% | . | -18% | 9% |
| DT40 TDP1 no CPT | 26µM* | ? | -2% | 21µM* | 21µM* | 17% | 3% | ? |

Brought forward from above: 4 entries, then new ones.
5) COCCCNC(=O)c1ccccc1N(Cc1ccccc1)S(=O)(=O)c1ccc(OC)cc1
6) C=CCN(c1ccccc1OC)S(=O)(=O)c1cccc(C(=O)NCc2ccco2)c1
7) CN(c1ccccc1C(=O)Nc1ccccc1C(=O)NCc1ccco1)S(C)(=O)=O
8) O=C(NCc1ccco1)c1ccccc1NS(=O)(=O)c1ccc(Br)s1
9) C=CCN(c1ccccc1OC)S(=O)(=O)c1ccc(Cl)c(C(=O)NCc2ccco2)c1
10) COc1ccc(S(=O)(=O)N(Cc2ccccc2)c2ccccc2C(=O)Nc2ccccc2C(=O)NCc2ccco2)cc1
11) CCN1CCN(C(=O)c2ccccc2N(Cc2ccccc2)S(=O)(=O)c2ccc(OC)cc2)CC1
12) COc1ccc(S(=O)(=O)Nc2ccccc2C(=O)NCc2ccco2)cc1
13) Cc1occc1C(=O)NNC(=O)Nc1ccc([N+](=O)[O-])cc1
14) Cn1c(SCC(=O)NNC(=O)c2ccccc2)nnc1C(F)(F)F
15) O=C(Nc1ccc(F)cc1)C(c1cc2ccccc2o1)N1CCN(C(=O)c2ccco2)CC1 (configuration not stated)
16) COc1ccc(C2=NN(CC(=O)NCCCN(C)c3ccccc3)C(=O)CC2)cc1

| Compound | 5 | 6 | 7 | 8 | 9 | 10 | 11 | 12 | 13 | 14 | 15 | 16 |
| --- | --- | --- | --- | --- | --- | --- | --- | --- | --- | --- | --- | --- |
| TDP1 cell CPT | ? | 0% | 1% | ? | 18µM* | ? | ? | 21µM* | -6% | 0% | -18% | ? |
| TDP1 inh | . | 1% | 4% | 5% | . | 2% | 0% | 2% | 5% | 1% | . | 4% |
| uPA surface inh | ? | -1% | . | 0% | . | 9% | ? | 3% | -3% | 0% | . | . |
| miR-21 reporter | 16% | . | -18% | 9% | . | -5% | 15% | -2% | -6% | . | . | 12% |
| DT40 TDP1 no CPT | 21µM* | 17% | 3% | ? | 13µM* | 5.8µM* | ? | ? | 11% | 0% | ? | 15µM* |

17) CCCCN(CCCNC(=O)CN1N=C(c2ccc(C)cc2)CCC1=O)c1ccccc1
18) CCN(CCCNC(=O)CN1N=C(c2ccc(OC)cc2)CCC1=O)c1cccc(C)c1
19) CCN(CCCNC(=O)CN1N=C(c2ccc(C)cc2)CCC1=O)c1ccccc1
20) CCC(=O)N1CCC(c2ccc(OC)cc2)=N1
21) Cc1ccc2c(n1)CC(C)(C)C/C2=N\O
22) COc1cc(/C=C/C(=O)O)cc(S(=O)(=O)Nc2ccc3nc(C)sc3c2)c1OC
23) Cc1nc(-n2nc(C)c(Cc3ccc(Cl)cc3)c2C)sc1C(=O)N1CCCCC1C (configuration not stated)
24) Cc1nc(-n2nc(C)c(Cc3ccccc3Cl)c2C)sc1C(=O)N1CCCCC1C (configuration not stated)

| Compound | 17 | 18 | 19 | 20 | 21 | 22 | 23 | 24 |
| --- | --- | --- | --- | --- | --- | --- | --- | --- |
| TDP1 cell CPT | ? | ? | ? | 2% | ? | 7% | -6% | ? |
| TDP1 inh | 8% | 7% | 8% | 0% | 4% | . | -1% | 1% |
| uPA surface inh | . | . | . | 3% | -6% | -8% | . | . |
| miR-21 reporter | 24% | 5% | ? | -63% | 0% | -5% | -4% | -4% |
| DT40 TDP1 no CPT | 15µM* | 18µM* | 23µM* | 1% | -18% | -5% | ? | 21µM* |

25) O=C(/C=C/c1cn(CC(O)CN2CCCCCC2)c2ccccc12)c1ccccc1 (configuration not stated)
26) O=C(/C=C/c1cn(CC(O)CN2CCCCCC2)c2ccccc12)c1ccc(Br)cc1 (configuration not stated)
27) O=C(/C=C/c1cn(CC(O)CN2CCCCC2)c2ccccc12)c1cccs1 (configuration not stated)
28) Cc1ccc(C(=O)/C=C/c2cn(CC(O)CN3CCCCCC3)c3ccccc23)cc1 (configuration not stated)
29) COc1ccc(CCNC(=O)CCCNC(=O)Cn2cnc3sc(C)c(C)c3c2=O)cc1OC
30) COC(=O)CCCn1cc(CN2CC(N(C)C)CS2(=O)=O)nn1 (configuration not stated)
31) Cn1ncc([N+](=O)[O-])c1C(=O)NC1CCCCCC1
32) Cc1oc(-c2ccccc2NC(=O)C2CCC2)nc1CNC(=O)c1ccc2ccccc2c1

| Compound | 25 | 26 | 27 | 28 | 29 | 30 | 31 | 32 |
| --- | --- | --- | --- | --- | --- | --- | --- | --- |
| TDP1 cell CPT | ? | 16µM* | ? | 12µM* | -24% | 4% | 16% | 2%[9.04 µM] |
| TDP1 inh | 3% | 8% | 1% | 8% | -2% | . | 7% | . |
| uPA surface inh | . | . | -11% | . | 4% | . | -3% | . |
| miR-21 reporter | ? | -9% | -6% | 9% | -1% | . | -6% | . |
| DT40 TDP1 no CPT | 23µM* | 13µM* | 16µM* | 21µM* | 12% | -21% | 12% | -9% |

33) Cc1cc(C)cc(NC(=O)C2CCN(c3nc4ccccc4nc3C(F)(F)F)CC2)c1
34) CC(c1ccccc1)C1CC(=O)N(Cc2ccco2)C1=O (configuration not stated)
35) O=C(CCCN1C(=O)c2ccccc2C1=O)NCCCN1CCOCC1
36) CC(=O)N1CCN(c2csc3ccc(F)cc3c2=O)CC1
37) CC(=O)Nc1ccc(NS(=O)(=O)c2ccc3c(c2)CCCN3C(C)=O)cc1
38) CC(=O)N1CCCc2ccc(NS(=O)(=O)c3ccc(C)cc3)cc21
39) CCOc1ccc(S(=O)(=O)Nc2ccc3c(c2)N(C(C)=O)CCC3)cc1
40) COc1ccccc1NC(=O)COc1cccc(-n2cnnn2)c1

| Compound | 33 | 34 | 35 | 36 | 37 | 38 | 39 | 40 |
| --- | --- | --- | --- | --- | --- | --- | --- | --- |
| TDP1 cell CPT | ? | ? | -4% | -15% | 4% | ? | ? | 2% |
| TDP1 inh | -3% | 5% | 3% | 3% | 8% | -2% | 1% | -2% |
| uPA surface inh | . | -1% | 0% | . | . | -8% | . | 4% |
| miR-21 reporter | -1% | -3% | -7% | -5% | -3% | . | 20% | -18% |
| DT40 TDP1 no CPT | ? | 21µM* | 1% | -8% | 2% | 26µM* | 18µM* | 3% |

41) CCc1ccc(NC(=O)CSc2nnc(-c3ccccc3)n2CC)cc1
42) CC1(C)Oc2ccc(C(=O)N3CCOCC3)cc2N(CC(=O)N2CCOCC2)C1=O
43) CCC(C)(C)n1nnnc1C(C(C)C)N(CCN1CCOCC1)Cc1cc2cccc(C)c2[nH]c1=O (configuration not stated)
44) Cc1cccc2cc(CN(CCCN3CCOCC3)Cc3nnnn3C(C)(C)C)c(=O)[nH]c12
45) CCC(c1nnnn1C(C)(C)CC)N(CCCN1CCOCC1)Cc1cc2cccc(C)c2[nH]c1=O (configuration not stated)
46) CCC(=O)N1c2ccccc2CC1C(=O)NCc1cccc(OC)c1OC (configuration not stated)

| Compound | 41 | 42 | 43 | 44 | 45 | 46 |
| --- | --- | --- | --- | --- | --- | --- |
| TDP1 cell CPT | -25% | -23% | 18µM* | -23% | 14µM* | ? |
| TDP1 inh | . | 3% | 6% | 5% | -1% | 1% |
| uPA surface inh | . | 0% | . | -10% | . | . |
| miR-21 reporter | . | 0% | 0% | -1% | 0% | -1% |
| DT40 TDP1 no CPT | -29% | 6% | -25% | -2% | ? | -16% |
